In ChEMBL document CHEMBL1125712 (J Med Chem, 1991):

Target: Aldo-keto reductase family 1 member B1 (Homo sapiens, UniProt P15121)

O=C(O)Cc1nn(Cc2nc3cc(C(F)(F)F)ccc3s2)c(=O)c2ccccc12 [ZOPOLRESTAT]
Ki: 19 nM
